# Biological target: rat nNOS (Rattus norvegicus, UniProt P29476)
# Conditions: amine in the chain replaced with ether or amide
compound,measurement,value
"Cc1cc(N)nc(CC2CNCC2OCC(=O)NCCc2cccc(F)c2)c1 (stereo not shown) [compound 5, 2-(4-((6-Amino-4-methylpyridin-2-yl)-methyl)-pyrrolidin-3-yloxy)-N-(3-fluorophenethyl)-acetamide]",potency with nNOS relative to 1,significant loss in potency
